Measured values from ChEMBL document CHEMBL5380855, “Acetyl-Click Screening Platform Identifies Small-Molecule Inhibitors of Histone Acetyltransferase 1 (HAT1)” (J Med Chem, 2023).

Amino acid sequences for entries named in this document (tags omitted). A change or cut given only in a name is not applied to a line headed by its entry.
UniProt Q16576, whole entry, looked up: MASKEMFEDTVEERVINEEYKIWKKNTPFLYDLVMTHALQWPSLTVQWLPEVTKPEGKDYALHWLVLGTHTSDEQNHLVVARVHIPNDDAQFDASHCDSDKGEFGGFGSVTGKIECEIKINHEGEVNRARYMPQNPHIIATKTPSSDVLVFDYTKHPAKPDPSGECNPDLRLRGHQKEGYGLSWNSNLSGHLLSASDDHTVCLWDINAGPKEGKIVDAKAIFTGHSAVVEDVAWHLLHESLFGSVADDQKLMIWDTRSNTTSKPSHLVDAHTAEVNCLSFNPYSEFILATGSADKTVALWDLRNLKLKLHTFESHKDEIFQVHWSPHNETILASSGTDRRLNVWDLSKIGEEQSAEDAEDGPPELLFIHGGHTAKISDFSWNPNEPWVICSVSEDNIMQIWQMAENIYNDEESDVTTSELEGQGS
UniProt O14929: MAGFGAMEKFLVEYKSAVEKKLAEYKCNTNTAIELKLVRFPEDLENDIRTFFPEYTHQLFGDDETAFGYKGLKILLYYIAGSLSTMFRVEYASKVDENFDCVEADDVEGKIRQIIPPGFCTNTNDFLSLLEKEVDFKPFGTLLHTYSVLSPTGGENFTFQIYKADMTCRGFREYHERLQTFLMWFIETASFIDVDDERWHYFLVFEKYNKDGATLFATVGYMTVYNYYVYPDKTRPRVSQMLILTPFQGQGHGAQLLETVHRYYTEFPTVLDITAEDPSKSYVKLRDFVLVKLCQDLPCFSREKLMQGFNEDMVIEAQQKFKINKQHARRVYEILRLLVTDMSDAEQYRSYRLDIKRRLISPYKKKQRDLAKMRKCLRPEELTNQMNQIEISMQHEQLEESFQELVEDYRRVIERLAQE

Molecular target: HAT1/Rbap46 (Homo sapiens) (UniProt Q16576+O14929)
Assay: Inhibition of C-terminal FLAG tagged full length human HAT1/Rbap46 transfected in HEK293F cells using histone H4 peptide as substrate and 4-pentynoyl-CoA as cofactor at 1 to 100 uM preincubated for 10 mins followed by 4-pentynoyl-CoA addition and measured after 1 hr by amplex red dye based fluorescence analysis relative to control
Assay type: cell-based
Settings: dose 1-100 µM, time 70.0 min

## Cc1cc2nc3c(=O)[nH]c(=O)nc-3n(C[C@H](O)[C@H](O)[C@H](O)COP(=O)(O)OP(=O)(O)OC[C@H]3O[C@@H](n4cnc5c(N)ncnc54)[C@H](O)[C@@H]3O)c2cc1C
  inhibition: inactive

The source made the active and inactive calls. The calls are words filed in the database; no cut-off is given here.
